miR-21 reporter – miR-21 reporter, rising signal; HeLa miR-21 FLuc reporter, luciferase, 48 h; Potency, µM (highest dose often 38.3 µM), for the others: top-dose reporter change, positive = more light; 340,000 tested, under 10 active; AID 2288; active = well fitted rising curve with a large enough effect; inconclusive = small, poorly fitted or top-dose-only effect; inactive = no such curve, though single readings can be large or run the other way;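 further: % of control where 0% means no effect; miR-21 action dims this reporter so a rising signal means less miR-21 action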
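Using DMEM plus 10% FBS, HeLa miR-21-FLuc cells are incubated with test compounds (final up to about 40uM) for 48 hours; firefly luciferase signal is then imaged following reagent-mediated lysis.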
B2AR arrestin – beta2AR (human) beta-arrestin recruitment activity | P07550 | beta-arrestin recruitment to beta2AR, cell-based reporter | Potency, µM (titrated, usually from 46.1 µM), for inactives: at the highest dose activation, usual class: activators | actives 0.02% (n = 330,000);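 also: potency is read from the fitted curve at half-maximal effect; 0% = DMSO controls and full agonism = EC100 isoproterenol or metaproterenol; nearly all actives have a fitted effect of over 65% in size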
Pin1 inhibitor – human Pin1 inhibition. actives 0.009% (n = 390,000). Q13526. AID 504891. Potency, µM (titrated, usually from 115 µM), without a hit: at the top dose activity, negative = inhibition, usual class: inhibitors. Pin1 FP peptide displacement, HiFluor488, 10 min; active = well fitted inhibition curve with a large enough effect in the polarisation, with a control signal flat, not every such curve was filed as active; inconclusive = small, poorly fitted or top-dose-only effect, or effect the other way, or a change in a side signal; inactive = no such curve, though single readings can be large or run the other way; the % refers to the polarisation; also: potency is read from the fitted curve at half-maximal effect; % is scaled to controls: 0 for no effect and ±100 for the full control effect
PINK1 modulator – changes PINK1 expression | PINK1 immunofluorescence, high-content cytometry, 24 h | Potency, µM (doses to about 76.6 µM), inactives show top-dose activation (PINK1 increase), actives largely listed as activators | actives 0.2% (n = 410,000) | AID 624263; active = well fitted activation curve with a large enough effect; inconclusive = small, poorly fitted or top-dose-only effect; cell line not stated here; also: potency is read from the fitted curve at half-maximal effect; % of control where 0% means no effect; nearly all actives have a fitted effect of over 65% in size
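Compound titrations (5 concentrations, 24 h) on a stable cell line; DMSO and CCCP controls. Endpoint: fixed-cell PINK1 immunofluorescence with mitochondrial, cell and nuclear markers, scanned by microplate cytometer.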
PKM2 activator – PKM2 (human) enzyme activation; Potency, µM (top dose mostly 57.5 µM), for the others: at the highest dose activation, actives largely listed as activators; AID 1631; actives 0.34% (n = 260,000); purified PKM2, Kinase-Glo ATP luminescence, activation; response scale: 0% is enzyme alone, no compound; also: potency is read from the fitted curve at half-maximal effect; % is scaled to controls: 0 for no effect and ±100 for the full control effect; nearly all actives have a fitted effect of over 55% in size
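Kinase-Glo luminescence reports ATP generated from ADP (0.1 mM) and PEP (0.5 mM) by purified hPK-M2 after 1 h at room temperature, pH 7.2 imidazole buffer; intermediate enzyme activity allows detecting inhibitors and activators.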
BCR signal inh – blocks chronic active B-cell receptor signaling. actives 0.05% (n = 340,000). Potency, µM (highest dose often 46.1 µM), without a hit: at the top dose activity change, negative = inhibition, hits mostly inhibitors. ABC-DLBCL IkBa-CBG/CBR reporter, luminescence ratio, 4 h; active = well fitted inhibition curve with a large enough effect in the signal ratio, with a control signal flat, not every such curve was filed as active; inconclusive = small, poorly fitted or top-dose-only effect, or effect the other way, or a change in a side signal; the % refers to the signal ratio;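 also: potency is read from the fitted curve at half-maximal effect; plate controls were basal doxycycline-induced cells for no effect and cells given 10 µM MG132 for full effect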
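Doxycycline induced both beetle luciferases in TMD8 lymphoma cells; IKK-driven degradation limits the IkappaBalpha-fused green signal, while red luminescence normalises for cell number and nonspecific effects. Compounds tested up to 46 uM, 4 hrs.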
HeLa viability – HeLa cytotoxicity, CellTiter-Glo readout. shares compounds with PKM2 activator. HeLa viability, CellTiter-Glo ATP luminescence, 24 h. activity change, negative = cytotoxicity, % at 57.5 µM. 230 tested, under 10 active. AID 1898; also: % of control where 0% means no effect
An asterisk follows results filed as active; ? = inconclusive; . = no result; [ ] = dose if it differs, or a comment. The list is not random: actives were taken first. Their share in the collection is about 0.46%. Unless noted, calls follow the shape of the dose curve; as a rule, active = well fitted curve in the direction sought with a large enough effect; inconclusive = small, poorly fitted or top-dose-only effect, or another doubt; inactive = no such curve, though single readings can be large; an effect the other way counts as inactive or inconclusive.

1. Cn1c(SCC2CCCO2)nnc1C1CCN(Cc2ccccc2O)CC1 (configuration not stated)
2. O=S(=O)(c1ccccc1)N1CCN(S(=O)(=O)c2ccc3c(c2)OCCO3)CC1
3. O=S(=O)(c1cccc(C(F)(F)F)c1)N1CCN(S(=O)(=O)c2ccc3c(c2)OCCO3)CC1
4. c1ccc2[nH]c(CSc3nnc(-c4ccncc4)o3)nc2c1
5. COc1cccc(-n2c(SC)nnc2C2CCN(CCC(C)c3ccc(C)o3)CC2)c1 (configuration not stated)
6. O=C(NCc1nnc2c(C(F)(F)F)cc(Cl)cn12)c1cccs1
7. O=C(NCc1nnc2c(C(F)(F)F)cc(Cl)cn12)C1CCCC1
8. CCC1C(=O)NCCN1Cc1ccc2c(c1)CN(Cc1cc(OC)ccc1OC)CCO2 (configuration not stated)
9. COc1ccc2c(c1)CCc1cnc(-n3ncc(C(=O)NCc4cc(C)no4)c3C3CC3)nc1-2
10. Cc1cc(=O)[nH]c2ccc(S(=O)(=O)Nc3ccc(O)cc3)cc12

assay / compound | 1 | 2 | 3 | 4 | 5 | 6 | 7 | 8 | 9 | 10
PINK1 modulator | -1% | . | 3% | 3% | 1% | -2% | 0% | 0% | 0% | 0%
Pin1 inhibitor | . | -2% | -5% | -5% | . | -1% | 2% | . | . | 6%
miR-21 reporter | . | . | . | -6% | . | 1% | -1% | . | . | -9%
PKM2 activator | . | . | . | 1.8µM* | . | 2.8µM* | 1% | . | . | 2.2µM*
HeLa viability | . | 0 | 2 | -1 | . | 0 | . | . | . | -6
BCR signal inh | . | . | -1% | -17% | . | -8% | 3% | . | . | ?
B2AR arrestin | . | . | 1% | 1% | . | 0% | 0% | . | . | 0%

Some of these compounds in order of number of heavy atoms, highest first:
9. COc1ccc2c(c1)CCc1cnc(-n3ncc(C(=O)NCc4cc(C)no4)c3C3CC3)nc1-2
3. O=S(=O)(c1cccc(C(F)(F)F)c1)N1CCN(S(=O)(=O)c2ccc3c(c2)OCCO3)CC1
5. COc1cccc(-n2c(SC)nnc2C2CCN(CCC(C)c3ccc(C)o3)CC2)c1 (configuration not stated)
6. O=C(NCc1nnc2c(C(F)(F)F)cc(Cl)cn12)c1cccs1

assay / compound | 9 | 3 | 5 | 6
PINK1 modulator | 0% | 3% | 1% | -2%
Pin1 inhibitor | . | -5% | . | -1%
miR-21 reporter | . | . | . | 1%
PKM2 activator | . | . | . | 2.8µM*
HeLa viability | . | 2 | . | 0
BCR signal inh | . | -1% | . | -8%
B2AR arrestin | . | 1% | . | 0%

Following part
11. Cc1c(C(=O)OC2CCCCC2)[nH]c2c1C(=O)CC(c1ccccc1Cl)C2 (configuration not stated)
12. Cc1c(C(=O)N2CCOCC2)[nH]c2c1C(=O)CC(c1ccccc1Cl)C2 (configuration not stated)
13. CS(=O)(=O)Nc1ccc(C2=NN(C(=O)c3ccco3)C(c3ccccc3F)C2)cc1 (configuration not stated)
14. CCS(=O)(=O)Nc1ccc(C2=NN(C(=O)c3ccco3)C(c3ccco3)C2)cc1 (configuration not stated)
15. Cc1nc2cc(NCc3ccccc3O)ccc2n1Cc1ccccc1
16. Cc1nc2ccccc2n1Cc1ccccc1
17. O=S(=O)(NC1CCCC(NS(=O)(=O)c2c(F)cccc2F)C1)c1ccc2c(c1)OCCO2 (configuration not stated)
18. O=S(=O)(NC[C@@H]1CCC[C@H](CNS(=O)(=O)c2c(F)cccc2F)C1)c1ccc2c(c1)OCCO2
19. O=S(=O)(NC1CCN(S(=O)(=O)c2c(F)cccc2F)C1)c1ccc2c(c1)OCCO2 (configuration not stated)
20. O=S(=O)(NC1CCN(S(=O)(=O)c2c(F)cccc2F)CC1)c1ccc2c(c1)OCCO2

assay / compound | 11 | 12 | 13 | 14 | 15 | 16 | 17 | 18 | 19 | 20
PINK1 modulator | 7% | 4%[38.3 µM] | 3% | ? | 0% | 2% | . | . | 0% | 0%
Pin1 inhibitor | 0% | -1% | -1% | 0% | ? | 0% | 30% | 11% | -1% | 3%
miR-21 reporter | 20% | ? | 20% | . | -30% | 2% | . | . | . | .
PKM2 activator | . | 16µM* | 3.2µM* | . | 5µM* | 0% | . | . | . | .
HeLa viability | . | -14 | 0 | . | -12 | . | . | . | ? | -29
BCR signal inh | . | -1% | ? | ? | ? | -1% | . | 6% | 2% | -1%
B2AR arrestin | . | 0% | 1% | 2% | 0% | 0% | . | 0% | 1% | -1%

21. NC(=O)C1CCN(S(=O)(=O)c2ccc3c(c2)OCCO3)CC1
22. O=S(=O)(NCCCNS(=O)(=O)c1c(F)cccc1F)c1ccc2c(c1)OCCO2
23. O=S(=O)(c1ccc2c(c1)OCCO2)C1CCN(S(=O)(=O)c2c(F)cccc2F)CC1
24. O=S(=O)(NC1CCC(CNS(=O)(=O)c2c(F)cccc2F)CC1)c1ccc2c(c1)OCCO2 (configuration not stated)
25. COc1ccccc1-n1cc(CN2CCOc3ccc(CN4C[C@@H](C)O[C@@H](C)C4)cc3C2)cn1
26. CNC(=O)[C@@H]1C[C@H](NC2CCCCCCC2)CN1Cc1cccc(OC)c1OC
27. O=c1c(Cc2ccc(Cl)cc2)c(O)ccn1Cc1ccncc1
28. O=C(c1cc(-c2ccccc2)on1)N1CCOc2ccc(CN3CCN(c4ccccn4)CC3)cc2C1
29. CNC(=O)NC(=O)CSc1ncc(C(F)(F)F)cc1Cl
30. Cc1ccc(NC(=O)CN(C)C(=O)CSc2ncc(C(F)(F)F)cc2Cl)cc1

assay / compound | 21 | 22 | 23 | 24 | 25 | 26 | 27 | 28 | 29 | 30
PINK1 modulator | -3% | 0% | . | . | 0% | 1% | 0% | 0% | 0% | -2%
Pin1 inhibitor | 10% | 0% | 0% | . | . | . | 3% | . | -3% | 14%
miR-21 reporter | 1% | . | . | . | . | . | -4% | . | -6% | -10%
PKM2 activator | 15% | . | . | . | . | . | 8.9µM* | . | 0.4µM* | -4%
HeLa viability | . | -2 | ? | . | . | . | -3 | . | 0 | .
BCR signal inh | 0% | -5% | . | -3% | . | . | -1% | . | 0% | 3%
B2AR arrestin | -1% | 0% | . | -1% | . | . | 0% | . | 0% | 1%

31. Cc1ccc(CN2CCOc3ccc(CN4CCC(Oc5cccnc5)CC4)cc3C2)o1
32. Cc1ccccc1-n1nnnc1SCc1cc(=O)n2ccsc2n1
33. Cc1cc2c(s1)c1cnn(Cc3cccc(F)c3)c(=O)c1n2C
34. Cc1cc2c(s1)c1cnn(Cc3cc(F)cc(F)c3)c(=O)c1n2C
35. Cc1cc2c(s1)c1cnn(Cc3cccc(Cl)c3)c(=O)c1n2C
36. COc1cccc(NC(=O)CSc2nnc(-c3cccc(OC)c3)o2)c1
37. COc1cccc(NC(=O)CSc2nnc(-c3ccc(C)cc3)o2)c1
38. Cc1ccc(C(=O)N(Cc2cc3cc4c(cc3nc2N2CCOCC2)CCC4)CC2CCCO2)s1 (configuration not stated)
39. O=C([C@@H]1C[C@@H](Sc2nc3ccccc3[nH]2)CN1CC1CCCCC1)N1CCOCC1
40. Cn1c2cc(S(C)=O)sc2c2cnn(Cc3ccccc3F)c(=O)c21 (configuration not stated)
41. CC(=O)c1cc2c(s1)c1cnn(Cc3ccccc3F)c(=O)c1n2C
42. COc1cc(=O)n2c(c1C(=O)N(C)Cc1nonc1C)CCN(C(=O)c1cc(C)ccc1C)CC2
43. Cc1cc(C)n2nc(SCc3cc(=O)oc4ccc5ccccc5c34)nc2n1

assay / compound | 31 | 32 | 33 | 34 | 35 | 36 | 37 | 38 | 39 | 40 | 41 | 42 | 43
PINK1 modulator | -1% | 2% | . | . | . | 0% | -2% | -1% | 0% | . | . | 0% | 12%
Pin1 inhibitor | . | -8% | 4% | 3% | 1% | 12% | 2% | . | . | -9% | -4% | . | 5%
miR-21 reporter | . | 4% | . | . | . | -53% | -32% | . | . | . | . | . | -4%
PKM2 activator | . | 0.79µM* | . | . | . | . | 1.3µM* | . | . | . | . | . | 2.8µM*
HeLa viability | . | -20 | -3 | . | -1 | . | 8 | . | . | 10 | -1 | . | 0
BCR signal inh | . | 3% | . | . | . | . | ? | . | . | . | . | . | 0%
B2AR arrestin | . | 0% | . | . | . | . | 0% | . | . | . | . | . | 0%
